# Measured affinities in a library of Ab-95 light chain variants

Antigen: PDVDLGDISGINAS, a 14-residue peptide of the SARS-CoV-2 spike HR2 region.

Parent scFv Ab-95: VH joined to VL by a (GGGGS)3 linker. Changes lie in the light chain CDRs alone.
VH: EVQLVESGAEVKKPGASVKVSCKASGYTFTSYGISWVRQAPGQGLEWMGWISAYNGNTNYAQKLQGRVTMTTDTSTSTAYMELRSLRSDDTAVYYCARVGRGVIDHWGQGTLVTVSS
VL: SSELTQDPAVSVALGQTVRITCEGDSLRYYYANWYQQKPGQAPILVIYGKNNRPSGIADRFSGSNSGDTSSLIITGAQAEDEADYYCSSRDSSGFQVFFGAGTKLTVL

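The starting antibody came from a phage panning campaign against this peptide. Library AAYL52 holds single substitutions and randomly drawn double and triple substitutions in the CDRs. AlphaSeq pools MATa yeast showing the antibodies with MATalpha yeast showing the peptide. The frequency of each diploid, read from paired DNA barcodes, reflects how well the two displayed proteins bind. A regression on co-assayed BCL2-family reference pairs converts the normalised counts of each replicate to an apparent Kd. The assay was run in three technical replicates.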

Each variant is given by its three light chain CDRs, as the data file delimits them; those of the parent are EGDSLRYYYAN, GKNNRPS, SSRDSSGFQVF.
Every variant below is changed at S88 of the VL (sequential numbering).
Kd is apparent (estimated from mating counts) and averaged on the log scale over replicates with a signal. Smaller is tighter.
An entry "nd" has no value in the source: the pair was not observed among the diploids in any replicate. This suggests poor binding but is not conclusive.
Nonspecific signal, from three strains lacking the peptide, appeared in 28% of pairings of library AAYL52, centred on 8.2 µM (5% of these signals below 800 nM); values are not corrected for it.

Variant EGDSLRYYNAN | GKNNRPS | YSRDSSGFIVF gave 4.2 µM (2 of 3 replicates). For EGDSLRYYYAN | GKNNRPP | FSRDSSLFQVF, the assay gave 1.3 µM (3 of 3 replicates). Variant EGDSLRYYYAN | GKNNRPS | WSMDSTGFQVF showed 3.4 µM (1 of 3 replicates). With EHDSLRYYNAN | GKNNRPS | KSRDSSGFQVF the result was nd (0 of 3 replicates). Variant EGDSLRYYKAN | GKNNRPS | WFRDSSGFQVF showed 21 µM (1 of 3 replicates). For EGDSCRYYYAN | GKNNRPS | FFRDSSGFQVF, the assay gave 35 µM (2 of 3 replicates). For EGDSLRYYYAN | GKNNQPS | LSRDSSGFQVF, the assay gave 2.4 µM (1 of 3 replicates).

Variant EGDSLRYYYAD | GKNNSPS | HSRDSSGFQVF gave 28 µM (1 of 3 replicates). For EGDSLRYLYAN | GKNNRPS | WSRDSSGWQVF, the assay gave 12 µM (3 of 3 replicates). Variant EGDGLFYYYAN | GKNNRPS | YSRDSSGFQVF showed 2.0 µM (1 of 3 replicates). Variant EGDSLRYYYAN | GKNNRPS | NSRDSSGFQVF showed 270 nM (3 of 3 replicates). Variant EGDSLRYYYAK | GCNNRPS | ASRDSSGFQVF showed 7.8 µM (1 of 3 replicates). Variant EGDSLRYYYAL | GKNNRPS | KSRDGSGFQVF gave 270 µM (1 of 3 replicates). With EGDSLRYYYAN | GKNNRPS | TSRDSSGFQVF the result was 980 nM (1 of 3 replicates).

For EGDSLRYYYAN | GKNNRPT | CSRDRSGFQVF, the assay gave 200 nM (3 of 3 replicates). With EGDSLRYYYAN | GKNNRVS | CSRDSSGFQVF the result was 580 nM (3 of 3 replicates). Variant KGDSLRYYYAN | GKNNRPS | RSRDSEGFQVF gave 3.5 µM (1 of 3 replicates). With EGDSLRYYYAN | GKNNRPS | CSRDKLGFQVF the result was nd (0 of 3 replicates). For EGDPLRYYYHN | GKNNRPS | MSRDSSGFQVF, the assay gave 12 nM (3 of 3 replicates). With EGDSLRYYYAN | GKNFRCS | ESRDSSGFQVF the result was 35 µM (1 of 3 replicates). For EGDSLRYYYAN | SKNNRPS | RSRDSSGFQKF, the assay gave 690 nM (3 of 3 replicates).

With EGDSLRYYYAN | GKNNRPS | KSRHSSRFQVF the result was 5.1 µM (3 of 3 replicates). Variant EGYSLRYYYAN | GTNNRPS | ASRDSSGFQVF gave 1.1 µM (3 of 3 replicates). Variant EGDSLRRYYAN | GKNNRPS | TSRDSSGFQFF gave 380 nM (3 of 3 replicates). With EGDSLRYGYAN | GKNNRPS | QSRDSSGFQVF the result was 8.1 nM (3 of 3 replicates). With EGDSLRYYYAN | GKNNVPS | ISRDSSEFQVF the result was nd (0 of 3 replicates). Variant EGDSDRYYYAN | GKNNRPS | TSRDSSGFQHF showed 6.2 µM (3 of 3 replicates). With EGDSLRYYYAN | GKMNRPS | QSRDWSGFQVF the result was nd (0 of 3 replicates).

Variant EGDSLRYYYAN | GKNNRPS | DSRDSSGFQKF showed 400 nM (3 of 3 replicates). Variant EGDSLRYYTAN | GKNNRPS | ESRDSHGFQVF showed 73 nM (3 of 3 replicates). With EGDSLRYYYAW | GKNNRPP | VSRDSSGFQVF the result was 12 µM (2 of 3 replicates). With HGDSLRYYYAN | GKNNRPS | CSRDSSGFRVF the result was 1.5 µM (3 of 3 replicates). Variant EGDSLLYYYAN | GKNNRPI | YSRDSSGFQVF showed 2.3 µM (3 of 3 replicates). For CGDSLRYYYQN | GKNNRPS | YSRDSSGFQVF, the assay gave nd (0 of 3 replicates). For EGDSLRYYYAN | DKNNRKS | MSRDSSGFQVF, the assay gave 430 nM (3 of 3 replicates).

For EGDSLRYYYAN | GKNNTHS | QSRDSSGFQVF, the assay gave 5.2 µM (3 of 3 replicates). Variant GGDSLRYYYAN | GKNNRPS | HSRDSSGFSVF showed 130 nM (3 of 3 replicates). With PGDSLTYYYAN | GKNNRPS | YSRDSSGFQVF the result was nd (0 of 3 replicates). With EGDSLRYYYPN | GKNNRHS | WSRDSSGFQVF the result was 1.0 µM (3 of 3 replicates). For EGDSLRYYYAN | GKYNRPS | ISRDSSGFQCF, the assay gave 770 nM (3 of 3 replicates). Variant EGDLLRYYYAN | GKNNRPS | ISRDSSGFQVF gave 3.3 µM (1 of 3 replicates). For EGDSLRYYYAN | GKNNRPS | PSRDSALFQVF, the assay gave 590 nM (3 of 3 replicates).

Variant EGDSLRYYYAN | KKNNRPS | HSRDSSGFQVF showed 18 µM (3 of 3 replicates). Variant EGDSLRYYYAN | GKNNRPS | ASRDSSGFFSF gave 19 µM (2 of 3 replicates). For EGDSARYYYAN | GNNNRPS | YSRDSSGFQVF, the assay gave 5.4 µM (3 of 3 replicates). Variant EGDSLRYYYAN | GKNYRPS | DSRDSSGFQVF gave 1.1 µM (3 of 3 replicates). For EGDGLRYYYAN | KKNNRPS | TSRDSSGFQVF, the assay gave 8.4 µM (2 of 3 replicates). For EGDSLRYYYAN | GKNNRPS | DGRDSSGFQVF, the assay gave 2.9 µM (3 of 3 replicates). For EGDSLRYYKTN | GKNNRPS | DSRDSSGFQVF, the assay gave 21 µM (2 of 3 replicates).

Variant EGDRLRYYYAN | GKNNMPS | TSRDSSGFQVF showed nd (0 of 3 replicates).

A selection of 8 entries from above:

CDR-L1	CDR-L2	CDR-L3	Kd	replicates with signal
EGDGLRYYYAN	KKNNRPS	TSRDSSGFQVF	8.4 µM	2/3
EGDGLFYYYAN	GKNNRPS	YSRDSSGFQVF	2.0 µM	1/3
EGDSLRYLYAN	GKNNRPS	WSRDSSGWQVF	12 µM	3/3
EGDSCRYYYAN	GKNNRPS	FFRDSSGFQVF	35 µM	2/3
EGDSLRYYYAN	GKNNRPS	WSMDSTGFQVF	3.4 µM	1/3
PGDSLTYYYAN	GKNNRPS	YSRDSSGFQVF	nd	0/3
EGDSLRYYTAN	GKNNRPS	ESRDSHGFQVF	73 nM	3/3
EGDSLRYYYAN	GKNFRCS	ESRDSSGFQVF	35 µM	1/3

For reference, the parent read 200 nM as the reference entry and 180 nM as a member of this library.

Values reported by Engelhart et al. 2022, doi:10.1038/s41597-022-01779-4 (FLAb copy).